# Results taken from patent publication US20050048563A1, “Membrane molecule indicator compositions and methods” (Novasite Pharmaceuticals, Inc, priority 2000, published 2005).
# Sequences of proteins named here, by UniProt entry; tags and fusion partners are left off.
# UniProt P21452, whole entry: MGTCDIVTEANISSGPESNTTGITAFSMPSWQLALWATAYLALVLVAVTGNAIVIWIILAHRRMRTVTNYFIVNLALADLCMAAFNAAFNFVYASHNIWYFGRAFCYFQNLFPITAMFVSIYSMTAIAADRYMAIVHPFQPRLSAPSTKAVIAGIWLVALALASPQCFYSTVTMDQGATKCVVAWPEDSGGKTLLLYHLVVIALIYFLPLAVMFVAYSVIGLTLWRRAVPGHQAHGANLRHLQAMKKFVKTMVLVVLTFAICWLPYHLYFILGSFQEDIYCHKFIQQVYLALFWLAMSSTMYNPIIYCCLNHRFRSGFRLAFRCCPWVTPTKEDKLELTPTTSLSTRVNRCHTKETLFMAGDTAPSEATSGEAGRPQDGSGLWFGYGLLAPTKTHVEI
# Columns and labels:
# [1] = system: C-terminally truncated mutant human NK2 receptor; settings: prolonged NKA, n=19
# [2] = biological target: wild-type human NK2 receptors (Homo sapiens, UniProt P21452)
substance,measurement,setting,value
neurokinin A [NKA],average 50% recovery time of FRET signal,[1],1365 ± 599 s
same,average 50% recovery time of translocation response,"[2]; prolonged addition of NKA (1 μM), n=25",83 ± 38 s
same,decay time of translocation response,"[2]; short (10 s) pulses of agonist from puffer pipette, n=60",45 ± 7 s
